Measurements from patent publication US9962360B2, “Compositions and methods for enhancing hair growth, promoting skin regeneration, and wound healing” (The Hospital for Sick Children, priority 2014, dated 2018).

Tested on: NIH-3T3 cells
Assay: Ki67 assay in NIH-3T3 cells
Details: similar assay as for SKPs

Compound | Ki67-positive NIH-3T3 cells
CCCCC[C@H](O)/C=C/[C@H]1[C@H](O)CC(=O)[C@@H]1CCCCCCC(=O)O [Alp, alprostadil] | unaffected
trimebutine maleate [TM] | unaffected
